Values of other authors as cited in patent EP3494999A1, “PSMA LIGANDS FOR IMAGING AND ENDORADIOTHERAPY” (Technische Universität München, priority 2017, dated 2019).

By UniProt entry, the sequences of proteins in these tests, tags left out. Residues count along the entry.
UniProt P02768, 25-609: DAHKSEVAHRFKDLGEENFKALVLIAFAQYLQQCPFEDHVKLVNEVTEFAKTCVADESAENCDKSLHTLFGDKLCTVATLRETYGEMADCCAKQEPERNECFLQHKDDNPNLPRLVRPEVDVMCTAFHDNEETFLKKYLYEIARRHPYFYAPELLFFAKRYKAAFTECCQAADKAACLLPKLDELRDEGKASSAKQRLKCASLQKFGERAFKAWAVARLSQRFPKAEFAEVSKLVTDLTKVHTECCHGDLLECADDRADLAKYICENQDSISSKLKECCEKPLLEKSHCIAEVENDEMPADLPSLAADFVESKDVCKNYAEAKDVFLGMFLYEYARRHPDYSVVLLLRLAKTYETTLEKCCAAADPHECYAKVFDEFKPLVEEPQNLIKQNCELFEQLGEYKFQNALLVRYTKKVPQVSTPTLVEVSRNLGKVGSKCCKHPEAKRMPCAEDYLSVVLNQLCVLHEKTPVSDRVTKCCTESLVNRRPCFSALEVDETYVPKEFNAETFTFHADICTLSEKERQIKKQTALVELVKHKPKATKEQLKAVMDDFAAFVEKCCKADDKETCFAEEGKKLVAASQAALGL

Biological target: human serum albumin (Homo sapiens, UniProt P02768)
Conditions: literature value of human serum albumin binding (Valko et al. or Yamazaki et al.); cited from earlier work

p-benzylalcohol
Lit. HSA%: 13.15%
